Reference: patent US10842814B2, “Use of low dose arsenic for preserving genomic integrity” (Board of Regents of the University of Texas System, priority 2016, dated 2020)

Experiments:
bone marrow cells = assay: Bone marrow protection against Y-90 ibritumomab tiuxetan-induced damage (H&E, γ-H2AX, TUNEL staining); format: in vivo, BALB/c mice; settings: 200 μCi Y-90 ibritumomab tiuxetan via tail vein, no LDA
Excerpt: FIG. 1. γ-H2AX and TUNEL staining of bone marrow sections at different time points after Y-90 ibritumomab tiuxetan treatment. Balb/c mice were pretreated with or without low-dose arsenic (LDA) for three days, followed by administration of 200 μCi Y-90 ibritumomab tiuxetan (Y90) via tail vein injection. At the indicated time points, mice were sacrificed by cervical […] and bone marrows were harvested for staining. (A) Quantification of γ-H2AX positive cells. (B) Quantification of TUNEL positive cells in bone marrow sections. *P<0.05, **P<0.01, ***P<0.001.
In addition to our in vitro and in vivo work with LDA in the setting of IR and chemotherapy as described herein, we have also developed a preclinical model to assess the efficacy of LDA as a cytoprotective agent from the bone marrow toxicity of radioimmuno- and radiopharmaceutical therapy using Y-90 ibritumomab tiuxetan as a model. […]
Bone marrow damage was analyzed histologically with hematoxylin and eosin (H&E) staining, DNA DSBs were assessed by γ-H2AX staining and apoptosis was detected by terminal deoxynucleotidyl transferase dUTP nick end labeling (TUNEL) staining. […]

Karpas 422 = assay: Mouse xenograft model with CD20 expressing lymphoma cell line, tumor volume; format: in vivo; settings: single dose of Y-90 ibritumomab tiuxetan
Protocol: Treatments were initiated 1 week after implantation when tumors became palpable. Tumor volumes were measured periodically with calipers. Tumor volume was calculated using the equation: volume=length×width×depth×0.5236 […]. Two independent experiments were done and the tumor volumes were expressed as means±SE. In this tumor xenograft model, the tumor volume of the control group continued to increase with time.

B1: Y-90 ibritumomab tiuxetan: an anti-CD20 antibody conjugated to radioactive yttrium used to treat lymphoma (conjugate, chains of the INN, looked up)
heavy: QAYLQQSGAELVRPGASVKMSCKASGYTFTSYNMHWVKQTPRQGLEWIGAIYPGNGDTSYNQKFKGKATLTVDKSSSTAYMQLSSLTSEDSAVYFCARVVYYSNSYWYFDVWGTGTTVTVSAPSVYPLAPVCGDTTGSSVTLGCLVKGYFPEPVTLTWNSGSLSSGVHTFPAVLQSDLYTLSSSVTVTSSTWPSQSITCNVAHPASSTKVDKKIEPRGPTIKPCPPCKCPAPNLLGGPSVFIFPPKIKDVLMISLSPIVTCVVVDVSEDDPDVQISWFVNNVEVHTAQTQTHREDYNSTLRVVSALPIQHQDWMSGKEFKCKVNNKDLPAPIERTISKPKGSVRAPQVYVLPPPEEEMTKKQVTLTCMVTDFMPEDIYVEWTNNGKTELNYKNTEPVLDSDGSYFMYSKLRVEKKNWVERNSYSCSVVHEGLHNHHTTKSFSR
light: QIVLSQSPAILSASPGEKVTMTCRASSSVSYMHWYQQKPGSSPKPWIYAPSNLASGVPARFSGSGSGTSYSLTISRVEAEDAATYYCQQWSFNPPTFGAGTKLELKRADAAPTVFIFPPSDEQLKSGTASVVCLLNNFYPREAKVQWKVDNALQSGNSQESVTEQDSKDSTYSLSSTLTLSKADYEKHKVYACEVTHQGLSSPVTKSFN
modifications: tiuxetan chelator with yttrium-90
**Q.** B1 was tested. Which “damage to bone marrow cells (loss of cellularity)” value (bone marrow cells) did it give?
**A.** severe damage to bone marrow cells

**Q.** And the “tumor growth (tumor volume)” value (Karpas 422)?
**A.** marked tumor growth suppression
